# Target: Monoglyceride lipase (Homo sapiens, UniProt Q99685)
# The chains behind the UniProt entries cited, without tags or fusion partners.
# UniProt Q99685, whole entry, looked up: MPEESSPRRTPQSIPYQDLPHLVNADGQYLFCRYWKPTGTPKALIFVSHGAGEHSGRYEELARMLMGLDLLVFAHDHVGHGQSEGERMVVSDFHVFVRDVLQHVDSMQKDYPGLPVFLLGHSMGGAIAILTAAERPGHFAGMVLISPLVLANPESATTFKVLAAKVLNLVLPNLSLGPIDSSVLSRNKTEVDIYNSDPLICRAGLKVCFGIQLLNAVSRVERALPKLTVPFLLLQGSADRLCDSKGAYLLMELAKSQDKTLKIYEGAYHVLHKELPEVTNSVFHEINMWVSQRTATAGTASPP
# Assay: In Vitro Competitive Activity-Based Protein Assay: Proteomes (mouse brain membrane fraction or cell lysates for mouse assays; human prefrontal cortex or cell membrane fractions for human assays) (50 μL, 1.0 mg/mL total protein concentration) were preincubated with varying concentrations of inhibitors at 37° C. After 30 min, FP—Rh or HT-01 (1.0 μL, 50 μM in DMSO) was added and the mixture was incub
compound,measurement,value
C[C@@H]1CN(Cc2cccc(C(F)(F)F)c2)CCN1C(=O)Oc1cncc(C(N)=O)c1,IC50,< 50 µM

# Source: ChEMBL document CHEMBL5728759, “Dual MAGL and FAAH inhibitors” (2021)
